One compound from EP0800503B1, “NOVEL TRIENOIC RETINOID COMPOUNDS AND METHODS” (LIGAND PHARMACEUTICALS, INC., priority 1994, dated 1996) can be followed below.

What all share (format): cell-based
One assay concerns TPA induction of ODC. The assay is described as follows: Ornithine decarboxylase (ODC) assay, inhibition of TPA induction of ODC. The conditions noted are these: read-out: ODC IC80 (nM).
A further assay relates to RPMI 8226 cell line. The assay can be described thus: Incorporation of 3H-thymidine. The conditions noted are these: Homo sapiens, RPMI-8226, 96 h, read-out: TdR IC50 (nM).
The test system of a further assay is ME 180 cell line. The assay can be described thus: Incorporation of 3H-thymidine. The conditions noted are these: Homo sapiens, ME-180, 96 h, read-out: TdR IC50 (nM).

As a reminder, the IC80 is the point of the concentration-response curve where the effect stands at 80%. A word on the IC50: it is the point on the concentration scale where inhibition reaches its midpoint. With `CC1=C(/C=C/C(C)=C/C=C/C(C)=C/C(=O)O)C(C)(C)CCC1` [ATRA, all-trans retinoic acid, reference compound], the 80% effect concentration (IC80) in the assay with TPA induction of ODC came to 1.4 nM. The IC50 in the assay with RPMI 8226 cell line is 102 nM; with ME 180 cell line, 253 nM.
